Laboratory results from US5140102A, “Pentadecapeptide, guanylin, which stimulates intestinal guanylate cyclase” (Monsanto Company, priority 1991, dated 1992).

Amino acid sequences for entries named in this document (tags omitted). Residues count along the entry.
UniProt P25092, 24-1073 limits assumed: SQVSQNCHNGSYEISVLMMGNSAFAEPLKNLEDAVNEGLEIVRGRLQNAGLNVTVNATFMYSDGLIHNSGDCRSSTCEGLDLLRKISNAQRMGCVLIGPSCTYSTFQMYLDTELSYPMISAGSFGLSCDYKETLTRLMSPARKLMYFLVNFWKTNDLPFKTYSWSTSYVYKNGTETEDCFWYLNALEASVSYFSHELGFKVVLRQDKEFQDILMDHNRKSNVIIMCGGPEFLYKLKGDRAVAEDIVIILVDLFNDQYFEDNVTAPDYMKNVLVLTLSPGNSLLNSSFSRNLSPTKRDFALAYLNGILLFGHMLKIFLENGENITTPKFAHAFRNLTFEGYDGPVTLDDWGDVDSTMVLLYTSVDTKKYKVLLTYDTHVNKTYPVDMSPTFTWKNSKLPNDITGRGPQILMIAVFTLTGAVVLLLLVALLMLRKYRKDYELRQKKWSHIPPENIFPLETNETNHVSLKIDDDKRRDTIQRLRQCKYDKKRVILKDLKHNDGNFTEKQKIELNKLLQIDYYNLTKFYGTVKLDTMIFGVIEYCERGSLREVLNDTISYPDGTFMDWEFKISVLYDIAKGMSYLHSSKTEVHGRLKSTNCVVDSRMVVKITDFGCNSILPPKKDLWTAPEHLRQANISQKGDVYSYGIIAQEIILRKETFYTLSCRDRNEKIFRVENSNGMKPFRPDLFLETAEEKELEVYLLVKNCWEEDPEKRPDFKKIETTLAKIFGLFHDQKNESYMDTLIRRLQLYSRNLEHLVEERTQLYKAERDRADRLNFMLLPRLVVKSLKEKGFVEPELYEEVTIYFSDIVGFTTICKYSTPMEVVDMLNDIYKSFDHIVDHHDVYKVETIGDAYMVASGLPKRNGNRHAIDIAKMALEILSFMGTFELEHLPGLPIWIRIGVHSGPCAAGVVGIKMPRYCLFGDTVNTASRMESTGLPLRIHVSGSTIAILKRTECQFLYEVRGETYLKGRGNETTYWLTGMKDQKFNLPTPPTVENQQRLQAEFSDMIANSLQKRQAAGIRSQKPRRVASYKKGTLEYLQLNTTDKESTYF

Molecular target: intestinal guanylate cyclase (Homo sapiens, UniProt P25092)
Test: Cyclic GMP determination in T84 cells (bioassay)
Assay type: cell-based
Details: 10^-3 M

With sodium nitroprusside the “effect on cyclic GMP levels” value was “not detected”.

Only a part of the results on these compounds is given; other tests are left out.
